Values of other authors as cited in US6225321A (priority 1997, dated 2001).

Tests used:
human = conditions: in vivo; cited from earlier work
Mu receptor = conditions: Schmidt et al. 1985; cited from earlier work
Kappa receptor = conditions: Schmidt et al. 1985; cited from earlier work

Compound	duration of analgesic effect, clinical experience (human) [days]	addiction after continuous use (human)	dose needed to elicit the same analgesic effect (human) [mg]	action on Mu receptor (Mu receptor)	action on Kappa receptor (Kappa receptor)
Oc1ccc2c3c1O[C@H]1[C@@H](O)CC[C@@]4(O)[C@@H](C2)N(CC2CCC2)CC[C@]314 [Nalbuphine hydrochloride]	4 to 5				
Oc1ccc2c3c1O[C@H]1[C@@H](O)CC[C@@]4(O)[C@@H](C2)N(CC2CCC2)CC[C@]314 [Nalbuphine]		no significant addiction	10	antagonist	agonist
CO[C@]12CC[C@@]3(C[C@@H]1[C@](C)(O)C(C)(C)C)[C@H]1Cc4ccc(O)c5c4[C@@]3(CCN1CC1CC1)[C@H]2O5 [Buprenorphine]			0.3		

Where a name gives a salt, the structure may show the parent alone.
